Assay results: patent publication US20250144229A1, “CONJUGATE OF ANTIBODY-ERIBULIN OR DERIVATIVE THEREOF, INTERMEDIATE THEREOF, PREPARATION METHOD THEREFOR, PHARMACEUTICAL COMPOSITION THEREOF AND USE THEREOF” (MEDLINK THERAPEUTICS (SUZHOU) CO., LTD., priority 2022, published 2025)

T1: monkey B7H3-4IgG-His (monkey)
T1 chain: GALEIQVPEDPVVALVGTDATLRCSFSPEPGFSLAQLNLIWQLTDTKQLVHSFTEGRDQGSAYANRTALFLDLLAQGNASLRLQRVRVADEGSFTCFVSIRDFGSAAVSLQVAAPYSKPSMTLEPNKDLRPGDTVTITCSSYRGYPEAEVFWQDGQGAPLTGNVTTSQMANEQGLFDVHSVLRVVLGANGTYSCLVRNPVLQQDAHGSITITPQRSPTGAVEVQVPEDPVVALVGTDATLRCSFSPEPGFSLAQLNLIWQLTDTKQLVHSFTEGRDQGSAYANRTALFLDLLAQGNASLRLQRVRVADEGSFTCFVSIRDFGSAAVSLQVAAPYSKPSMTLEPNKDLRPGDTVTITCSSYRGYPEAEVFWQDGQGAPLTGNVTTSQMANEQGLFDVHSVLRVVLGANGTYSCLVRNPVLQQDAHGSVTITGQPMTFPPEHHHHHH

T2: human B7H3-4IgG-His (human, UniProt Q5ZPR3 27-461)
T2 construct: range 27-461; Recombinant antigen expressed in HEK293F cells; also called human 4Ig B7H3
T2 sequence: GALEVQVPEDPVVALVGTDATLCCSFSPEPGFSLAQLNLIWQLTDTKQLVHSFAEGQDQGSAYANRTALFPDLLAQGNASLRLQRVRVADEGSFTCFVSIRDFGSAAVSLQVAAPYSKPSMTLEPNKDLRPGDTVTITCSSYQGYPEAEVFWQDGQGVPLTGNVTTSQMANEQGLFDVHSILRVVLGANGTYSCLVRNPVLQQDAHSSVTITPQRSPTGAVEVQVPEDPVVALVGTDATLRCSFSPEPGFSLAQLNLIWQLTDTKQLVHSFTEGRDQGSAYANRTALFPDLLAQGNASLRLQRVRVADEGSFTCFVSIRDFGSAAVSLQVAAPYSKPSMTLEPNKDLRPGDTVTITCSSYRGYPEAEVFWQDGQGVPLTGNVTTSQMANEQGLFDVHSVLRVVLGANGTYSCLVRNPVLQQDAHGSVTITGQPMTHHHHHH

B1: anti-B7H3 antibody 2E3-02 (antibody, human IgG1, kappa, V domains shown)
VH: EVQLLESGGGLVQPGGSLRLSCAASGFTFSSYAMNWVRQAPGKGLEWVSGISGSGGSTYYADSVQGRFTISRDNSKNTLYLQMNSLRAEDTAVYYCAKARSGYDYFFDYWGQGTLVTVSS
VL: EIVLTQSPGTLSLSPGERATLSCRASQRISSSFLAWYQQKPGQAPSLLIYGASSRATGIPDRFSGSGSGTDFTLTISSLEPEDFAVFYCQQYSNSPLTFGGGTKVEIKR
B2: anti-B7H3 antibody 1D1-01 (antibody, human IgG1, kappa, V domains shown)
VH: EGQLVESGGGLVQPGGSLRLSCAASGFTISSYWMNWVRQAPGKGLEWVANIKQDGSEKYYVDSVQGRFTISRDNAKNSLYLQMNSLRAEDTAVYYCARRMYSSGWYWGAFDMWGQGTMVTVSS
VL: EIVLTQSPGTLSLSPGERATLSCRASQSVSSIYLAWNQQKPGQAPRLLIYGTFKRATGIPDRFSGSGSGTDFTLTISSLEPEDFAVYYCQQYDTSSITFGQGTRLEIKR

Experiments:
[1] = target: B7H3 protein on human tumor cells (MCF-7, A549, PC-3, HT29) (human) (UniProt Q5ZPR3); assay: flow cytometry on A549 tumor cells
[2] = target: B7H3 protein on human tumor cells (MCF-7, A549, PC-3, HT29) (human) (UniProt Q5ZPR3); assay: flow cytometry on PC-3 tumor cells
[3] = target: B7H3 protein on human tumor cells (MCF-7, A549, PC-3, HT29) (human) (UniProt Q5ZPR3); assay: flow cytometry on MCF-7 tumor cells
[4] = target: B7H3 protein on human tumor cells (MCF-7, A549, PC-3, HT29) (human) (UniProt Q5ZPR3); assay: flow cytometry on A549 tumor cells; reference B7H3-C1
[5] = target: B7H3 protein on human tumor cells (MCF-7, A549, PC-3, HT29) (human) (UniProt Q5ZPR3); assay: flow cytometry on PC-3 tumor cells; reference B7H3-C1
[6] = target: B7H3 protein on human tumor cells (MCF-7, A549, PC-3, HT29) (human) (UniProt Q5ZPR3); assay: flow cytometry on PC-3 tumor cells; reference B7H3-C2
[7] = target: B7H3 protein on human tumor cells (MCF-7, A549, PC-3, HT29) (human) (UniProt Q5ZPR3); assay: flow cytometry on MCF-7 tumor cells; reference B7H3-C1
[8] = target: B7H3 protein on human tumor cells (MCF-7, A549, PC-3, HT29) (human) (UniProt Q5ZPR3); assay: flow cytometry on MCF-7 tumor cells; reference B7H3-C2
[9] = target: T1, monkey B7H3-4IgG-His; assay: ELISA, antigen coated on the plate, anti-human Fc-HRP detection
Procedure: (§1) The affinity of B7H3 full human antibody to human B7H3-4IgG-His and monkey B7H3-4IgG-His proteins was tested by ELISA. Specific experimental procedures: Human B7H3-4IgG-His or monkey B7H3-4IgG-His proteins were diluted to a final concentration of 1 g/mL using carbonate buffer with a pH value of 9.6, then added to a 96-well ELISA plate at 100 μL/well, and coated overnight at 4° C. The coating solution was discarded, and the plate was washed once with PBST. 100 μL of PBS (containing 2% BSA) was added to each well, and blocked at 37° C. for 1 hour. 100 μL of B7H3 full human antibody diluted with PBS (containing 2% BSA) (starting at 10 g, 3-fold serial dilution in duplicate wells) was then added to each well, and incubated at 37° C. for 2 hours. The plate was washed three times with PBST, added with horseradish peroxidase-labeled anti-human Fc antibody (diluted at 1:10000 with PBS) at 100 μL/well, and incubated at 37° C. for 1 hour. The plate was washed five times with PBST. TMB chromogenic solution was added at 100 μL/well to develop color at 37° C. for 7 minutes. Stop solution was added at 50 μL/well to terminate the reaction. The absorbance was measured at 450 nm. EC₅₀ values were calculated from original data.

[10] = target: T2, human B7H3-4IgG-His; assay: as above
Procedure: as §1

Binder | EC50 [1] [pM] | Maximum MFI [1] | EC50 [2] [pM] | Maximum MFI [2] | EC50 [3] [pM] | Maximum MFI [3] | maximum fluorescence signal value, percent higher than that of B7H3-C1 [4] [%] | maximum fluorescence signal value, times higher than that of B7H3-C1 [5] [times] | maximum fluorescence signal value, times higher than that of B7H3-C2 [6] [times] | maximum fluorescence signal value, percent higher than that of B7H3-C1 [7] [%] | maximum fluorescence signal value, times higher than that of B7H3-C2 [8] [times] | EC50 [9] [pM] | EC50 [10] [pM]
B1 | 150 | 84800 | 63 | 9730 | 398 | 77700 | 77 | 1.51 | 4.48 | 23 | 2.78 | 27.7 | 17.5
B2 | 322 | 11300 |  |  | 524 | 94500 | 36 |  |  | 12 |  | 35.8 | 43.6
